The values that follow come from patent US10189836B2, “Therapeutic compounds, compositions and methods of use thereof” (Genentech, Inc., priority 2015, dated 2019).

In this test the test system is JAK1-dependent STAT6 phosphorylation downstream of IL-13 stimulation in BEAS-2B cells.
As to `CN(C1CCN(C(=O)Cn2cc(Nc3nc4c(N5CC6CCC(C5)N6C(=O)N5CC(C(F)(F)F)C5)cccn4n3)cn2)CC1)C1COC1` [Example 62, 1-[4-[methyl(oxetan-3-yl)amino]piperidin-1-yl]-2-(4-[[8-(8-[[3-(trifluoromethyl)azetidin-1-yl]carbonyl]-3,8-diazabicyclo[3.2.1]octan-3-yl)-[1,2,4]triazolo[1,5-a]pyridin-2-yl]amino]-1H-pyrazol-1-yl)ethan-1-one], half-maximal inhibition (IC50) required 98.4 nM.

`CN1CCN(C(=O)Cn2cc(Nc3nc4c(N5CC6CCC(C5)N6Cc5ccccc5C#N)cccn4n3)cn2)CC1` [Example 63, 2-[[3-[2-[[1-[2-(4-methylpiperazin-1-yl)-2-oxo-ethyl]pyrazol-4-yl]amino]-[1,2,4]triazolo[1,5-a]pyridin-8-yl]-3,8-diazabicyclo[3.2.1]octan-8-yl]methyl]benzonitrile]: the 50% inhibitory concentration (IC50) (in general, the concentration that gives 50% inhibition) turned out to be 47.2 nM. Molecule `CN1CCN(C(=O)Cn2cc(Nc3nc4c(N5CC6CCC(C5)N6C(=O)Cc5ccccc5F)cccn4n3)cn2)CC1` [Example 64, 2-(2-fluorophenyl)-1-[3-[2-[[1-[2-(4-methylpiperazin-1-yl)-2-oxo-ethyl]pyrazol-4-yl]amino]-[1,2,4]triazolo[1,5-a]pyridin-8-yl]-3,8-diazabicyclo[3.2.1]octan-8-yl]ethanone] registered a concentration for half-maximal inhibition (IC50) of 53.4 nM. The figure for `CN1CCN(C(=O)Cn2cc(Nc3nc4c(N5CC6CCCC(C5)N6C(=O)[C@H]5C[C@@H](C(F)(F)F)C5)cccn4n3)cn2)CC1` [Example 65, 1-(4-methylpiperazin-1-yl)-2-[4-[[8-[9-[3-(trifluoromethyl)cyclobutanecarbonyl]-3,9-diazabicyclo[3.3.1]nonan-3-yl]-[1,2,4]triazolo[1,5-a]pyridin-2-yl]amino]pyrazol-1-yl]ethanone] is 29.5 nM. As for `CN1CCN(C(=O)Cn2cc(Nc3nc4c(N5CC6CCC(C5)N6C(=O)Cc5ccc(F)cc5)cccn4n3)cn2)CC1` [Example 66, 2-(4-fluorophenyl)-1-[3-[2-[[1-[2-(4-methylpiperazin-1-yl)-2-oxo-ethyl]pyrazol-4-yl]amino]-[1,2,4]triazolo[1,5-a]pyridin-8-yl]-3,8-diazabicyclo[3.2.1]octan-8-yl]ethanone], the figure is 32.3 nM. As for `CC(CC(=O)N1C2CCC1CN(c1cccn3nc(Nc4cnn(CC(=O)N5CCN(C)CC5)c4)nc13)C2)C(F)(F)F` (stereo not shown) [Example 67, 4,4,4-trifluoro-3-methyl-1-[3-[2-[[1-[2-(4-methylpiperazin-1-yl)-2-oxo-ethyl]pyrazol-4-yl]amino]-[1,2,4]triazolo[1,5-a]pyridin-8-yl]-3,8-diazabicyclo[3.2.1]octan-8-yl]butan-1-one], the figure is 40.9 nM; as for `CN1CCN(C(=O)Cn2cc(Nc3nc4c(N5CC6CCC(C5)N6C(=O)c5ccccc5CC#N)cccn4n3)cn2)CC1` [Example 68], 113 nM; as for `CN1CCN(C(=O)Cn2cc(Nc3nc4c(N5CC6CCC(C5)N6C(=O)c5cccc(CC#N)c5)cccn4n3)cn2)CC1` [Example 69, 2-[3-[3-[2-[[1-[2-(4-methylpiperazin-1-yl)-2-oxo-ethyl]pyrazol-4-yl]amino]-[1,2,4]triazolo[1,5-a]pyridin-8-yl]-3,8-diazabicyclo[3.2.1]octane-8-carbonyl]phenyl] acetonitrile], 304 nM. Molecule `CN1CCN(C(=O)Cn2cc(Nc3nc4c(N5CC6CCC(C5)N6C(=O)c5ccccc5)cccn4n3)cn2)CC1` [Example 70, 2-[4-[[8-(8-benzoyl-3,8-diazabicyclo[3.2.1]octan-3-yl)-[1,2,4]triazolo[1,5-a]pyridin-2-yl]amino]pyrazol-1-yl]-1-(4-methylpiperazin-1-yl)ethanone] returned a 50% inhibitory concentration (IC50) of 117 nM.

`CN1CCN(C(=O)Cn2cc(Nc3nc4c(N5CC6CCC(C5)N6C(=O)C(C)(C)CC(F)(F)F)cccn4n3)cn2)CC1` [Example 71, 4,4,4-trifluoro-2,2-dimethyl-1-[3-[2-[[1-[2-(4-methylpiperazin-1-yl)-2-oxo-ethyl]pyrazol-4-yl]amino]-[1,2,4]triazolo[1,5-a]pyridin-8-yl]-3,8-diazabicyclo[3.2.1]octan-8-yl]butan-1-one] yielded an IC50 of 44 nM.

For `CN1CCN(C(=O)Cn2cc(Nc3nc4c(N5CC6CCC(C5)N6CC5(CC#N)CC5)cccn4n3)cn2)CC1` [Example 72, 2-[1-[[3-[2-[[1-[2-(4-methylpiperazin-1-yl)-2-oxo-ethyl]pyrazol-4-yl]amino]-[1,2,4]triazolo[1,5-a]pyridin-8-yl]-3,8-diazabicyclo[3.2.1]octan-8-yl]methyl]cyclopropyl] acetonitrile], inhibition was half-maximal at 55.3 nM (IC50). As for `O=C(Cn1cc(Nc2nc3c(N4CC5CCC(C4)N5C(=O)CCC(F)(F)F)cccn3n2)cn1)N1CCC(N2CCOCC2)CC1` [Example 74, 4,4,4-trifluoro-1-[3-[2-[[1-[2-(4-morpholino-1-piperidyl)-2-oxo-ethyl]pyrazol-4-yl]amino]-[1,2,4]triazolo[1,5-a]pyridin-8-yl]-3,8-diazabicyclo[3.2.1]octan-8-yl]butan-1-one], the figure is 100 nM; as for `CN(C)C(=O)CN1CCN(CC2CCN(C(=O)Cn3cc(Nc4nc5c(N6CC7CCC(C6)N7C(=O)CCC(F)(F)F)cccn5n4)cn3)CC2)CC1` [Example 75, N,N-dimethyl-2-[4-[[1-[2-[4-[[8-[8-(4,4,4-trifluorobutanoyl)-3,8-diazabicyclo[3.2.1]octan-3-yl]-[1,2,4]triazolo[1,5-a]pyridin-2-yl]amino]pyrazol-1-yl]acetyl]-4-piperidyl]methyl]piperazin-1-yl]acetamide], 436 nM; as for `CN1CCN(C(=O)Cn2cc(Nc3nc4c(N5CC6CCC(C5)N6C(=O)c5cccs5)cccn4n3)cn2)CC1` [Example 76, 1-(4-methylpiperazin-1-yl)-2-[4-[[8-[8-(thiophene-2-carbonyl)-3,8-diazabicyclo[3.2.1]octan-3-yl]-[1,2,4]triazolo[1,5-a]pyridin-2-yl]amino]pyrazol-1-yl]ethanone], 32.6 nM.

With `CN1CCN(C(=O)Cn2cc(Nc3nc4c(N5CC6CCC(C5)N6C(=O)CC(C)(C)C(F)(F)F)cccn4n3)cn2)CC1` [Example 77, 4,4,4-trifluoro-3,3-dimethyl-1-[3-[2-[[1-[2-(4-methylpiperazin-1-yl)-2-oxo-ethyl]pyrazol-4-yl]amino]-[1,2,4]triazolo[1,5-a]pyridin-8-yl]-3,8-diazabicyclo[3.2.1]octan-8-yl]butan-1-one], 59.8 nM corresponded to half-maximal inhibition (IC50). As for `CN1CCN(C(=O)Cn2cc(Nc3nc4c(N5CC6CCC(C5)N6C(=O)c5cncs5)cccn4n3)cn2)CC1` [Example 78, 1-(4-methylpiperazin-1-yl)-2-[4-[[8-[8-(thiazole-5-carbonyl)-3,8-diazabicyclo[3.2.1]octan-3-yl]-[1,2,4]triazolo[1,5-a]pyridin-2-yl]amino]pyrazol-1-yl]ethanone], the figure is 75.8 nM.

Turning to `COC(=O)N1CCN(CC2CCN(C(=O)Cn3cc(Nc4nc5c(N6CC7CCC(C6)N7C(=O)CCC(F)(F)F)cccn5n4)cn3)CC2)CC1` [Example 79, methyl 4-[[1-[2-[4-[[8-[8-(4,4,4-trifluorobutanoyl)-3,8-diazabicyclo[3.2.1]octan-3-yl]-[1,2,4]triazolo[1,5-a]pyridin-2-yl]amino]pyrazol-1-yl]acetyl]-4-piperidyl]methyl]piperazine-1-carboxylate], the 50% inhibitory concentration (IC50) turned out to be 60 nM. Regarding `COC(=O)C1C2CCC1CN(c1cccn3nc(Nc4cnn(CC(=O)N5CCN(C)CC5)c4)nc13)C2` (stereo not shown) [Example 80, methyl 3-[2-[[1-[2-(4-methylpiperazin-1-yl)-2-oxo-ethyl]pyrazol-4-yl]amino]-[1,2,4]triazolo[1,5-a]pyridin-8-yl]-3-azabicyclo[3.2.1]octane-8-carboxylate], it took 83.5 nM to reach half-maximal inhibition (IC50). As for `CN(C)C(=O)CN1CCN(CC2CCN(C(=O)Cn3cc(Nc4nc5c(N6CC7CCC(C6)N7C(=O)N6CC(C(F)(F)F)C6)cccn5n4)cn3)CC2)CC1` [Example 81, N,N-dimethyl-2-[4-[[1-[2-[4-[[8-[8-[3-(trifluoromethyl)azetidine-1-carbonyl]-3,8-diazabicyclo[3.2.1]octan-3-yl]-[1,2,4]triazolo[1,5-a]pyridin-2-yl]amino]pyrazol-1-yl]acetyl]-4-piperidyl]methyl]piperazin-1-yl]acetamide], the figure is 590 nM; as for `O=C(Cn1cc(Nc2nc3c(N4CC5CCC(C4)N5C(=O)[C@H]4C[C@@H](C(F)(F)F)C4)cccn3n2)cn1)N1CCN(C2CSC2)CC1` [Example 82], 38.6 nM.

Regarding `O=C(Cn1cc(Nc2nc3c(N4CC5CCC(C4)N5C(=O)[C@H]4C[C@H](C(F)(F)F)C4)cccn3n2)cn1)N1CCN(C2CSC2)CC1` [Example 83, 1-[4-(thietan-3-yl)piperazin-1-yl]-2-[4-[[8-[8-[3-(trifluoromethyl)cyclo-butanecarbonyl]-3,8-diazabicyclo[3.2.1]octan-3-yl]-[1,2,4]triazolo[1,5-a]pyridin-2-yl]amino]pyrazol-1-yl]ethanone], it took 161 nM to reach half-maximal inhibition (IC50). The figure for `CN1CCN(C(=O)Cn2cc(Nc3nc4c(N5C[C@H]6CC[C@@H](C5)[C@H]6OCc5cccnc5)cccn4n3)cn2)CC1` [Example 84, 1-(4-methylpiperazin-1-yl)-2-[4-[[8-[(1S,5R)-8-(3-pyridylmethoxy)-3-azabicyclo[3.2.1]octan-3-yl]-[1,2,4]triazolo[1,5-a]pyridin-2-yl]amino]pyrazol-1-yl]ethanone] is 17.1 nM; for `CN1CCN(C(=O)Cn2cc(Nc3nc4c(N5CC6CCC(C5)N6C(=O)c5ccns5)cccn4n3)cn2)CC1` [Example 87, 2-[4-[[8-[8-(isothiazole-5-carbonyl)-3,8-diazabicyclo[3.2.1]octan-3-yl]-[1,2,4]triazolo[1,5-a]pyridin-2-yl]amino]pyrazol-1-yl]-1-(4-methylpiperazin-1-yl)ethanone] it is 25 nM; for `CN1CCN(C(=O)Cn2cc(Nc3nc4c(N5CC6CCC(C5)N6S(=O)(=O)c5cccc(Cl)c5)cccn4n3)cn2)CC1` [Example 88, 2-[4-[[8-[8-(3-chlorophenyl)sulfonyl-3,8-diazabicyclo[3.2.1]octan-3-yl]-[1,2,4]triazolo[1,5-a]pyridin-2-yl]amino]pyrazol-1-yl]-1 - (4-methylpiperazin-1-yl)ethanone] it is 14.2 nM. As for `CN1CCN(C(=O)Cn2cc(Nc3nc4c(N5CC6CCC(C5)N6C(=O)c5ccc(Cl)cc5)cccn4n3)cn2)CC1` [Example 89], the figure is 138 nM.
